Measurements reported in PubChem BioAssay AID1825 (The Scripps Research Institute Molecular Screening Center, 2009).
The entries are a selection whose mix differs from that of the whole data set. The source made the active and inactive calls. Cut-off read from the data, not from the text of the source: active = inhibition above about 22%; inactive = the rest.

Assay: IEC-6 cell viability reduction – luminescence, cytotoxicity control for KLF5 inhibitor project, primary screen (AID 1825);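 note: 0% = plate median of test compound wells and 100% = cytotoxic reference compound wells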
Details: IEC-6 cytotoxicity, at 5 µM, stronger effect = higher value

| SMILES | inhibition |
| --- | --- |
| CN(C)C1(CNC(=O)c2ccc(Cl)c(S(N)(=O)=O)c2)CCCCC1 | inactive: -1.5% |
| O=P(Nc1ccccn1)(c1ccc(Br)cc1)c1ccc(Br)cc1 | inactive: 3.4% |
| O=P(Nc1nc2ccccc2s1)(c1ccccc1)c1ccccc1 | inactive: 4.5% |
| O=P1(Nc2ncccn2)COc2ccccc2OC1 | inactive: -3.5% |
| O=[As](O)(c1cccs1)c1cccs1 | inactive: -2.35% |
| Cc1ccc(OCC(=O)OC2CN3CCC2CC3)cc1 (stereo not given) | inactive: -0.4% |
| O=P1(Nc2ccc(Br)cn2)COc2ccccc2OC1 | inactive: 0.1% |
| Nc1cccc([As](=O)(O)c2ccccc2)c1 | inactive: -2.8% |
| Cc1nn(-c2ccccc2)c2c1P(=O)(N1CCOCC1)N(C)C(c1ccccc1)=N2 (stereo not given) | inactive: 2.2% |
| Cc1ccc(C(=O)OC2CN3CCC2CC3)cc1 (stereo not given) | inactive: -1.7% |
| CC1CCC(C(C)C)C(OP(=O)(Nc2ccccn2)c2ccccc2)C1 (stereo not given) | inactive: 3.1% |
| O=C(/C=C/c1ccccc1)OC1CN2CCC1CC2 (stereo not given) | inactive: 5.1% |
| CN(C)C1(CNC(=O)c2ccc(S(C)(=O)=O)cc2)CCCCC1 | inactive: 1.6% |
| O=[As](O)(c1ccccc1Br)c1ccccc1Br | inactive: 2.25% |
| CC1(CBr)Cn2c(nc3ccccc3c2=O)S1 (stereo not given) | inactive: 0.7% |
| CN(C(=O)Cc1ccc(Cl)c(Cl)c1)[C@@H]1CCCC[C@H]1N1CCCC1 | inactive: -5.9% |
| CC(C)/C=N\N=C(\N)N[N+](=O)[O-] | inactive: -0.6% |
| CCOP(=O)(Nc1ccc(C)cn1)OCC | inactive: -0.45% |
| CCC1=CC2Cc3nc4ccc(Cl)cc4c(N)c3C(C1)C2 (stereo not given) | inactive: 6.3% |
| O=P1(Nc2ccccn2)COc2ccccc2OC1 | inactive: -8.8% |
| CCOP(=O)(NC(=NC(C)c1ccccc1)NC(C)c1ccccc1)OCC (stereo not given) | inactive: 0.2% |
| Clc1n[nH]nc1-c1nn[nH][15n]1 | inactive: 4.1% |
| CC(C)(C)C(=O)NC(Sc1ncccn1)C(Cl)(Cl)Cl (stereo not given) | inactive: -8.7% |
| CCCOP(=S)(Nc1nc(N)cc(=O)[nH]1)OCCC | inactive: -5.7% |

| SMILES | inhibition |
| --- | --- |
| Nc1cccc2c([As](=O)(O)O)cccc12 | inactive: -10.2% |
| Cc1ccc(NCCc2c([N+](=O)[O-])cc([N+](=O)[O-])cc2[N+](=O)[O-])cc1 | inactive: -5.4% |
| COc1cc(C2NCCC3(OCCO3)C2(C)C)cc(OC)c1OC (stereo not given) | inactive: -0.9% |
| CCOP(=O)(Nc1cccc2ccccc12)OCC | inactive: 2% |
| O=[As](O)(O)c1cccnc1 | inactive: -1.1% |
| COc1cc(C(=O)NCC2(N3CCOCC3)CCCCC2)cc(Cl)c1OC(C)C | inactive: -8.7% |
| CS(=O)(=O)c1ccc(Cl)c(NC(=O)COC(=O)C(O)(c2ccccc2)c2ccccc2)c1 | inactive: -3% |
| O=C(OC1CN2CCC1CC2)c1ccc(Cl)cc1 (stereo not given) | inactive: -6.2% |
| Cc1cccc(OCC(=O)OC2CN3CCC2CC3)c1 (stereo not given) | inactive: 4.5% |
| O=[As](O)(c1cccc(O)c1)c1cccc(O)c1 | inactive: 2.2% |
| O=[N+]([O-])c1ccc2c(c1)nnn2O | inactive: 1% |
| CCOP1(=S)c2c(C)nn(CCC#N)c2N=C(c2ccc(F)cc2)N1C (stereo not given) | inactive: -2.1% |
| CS(=O)(=O)c1cc([N+](=O)[O-])c2no[n+]([O-])c2c1 | inactive: 0% |
| CCOP1(=S)c2c(C)nn(CCC#N)c2N=C(c2ccccc2F)N1C (stereo not given) | inactive: 0.2% |
| O=P(Nc1nccs1)(Oc1ccccc1)Oc1ccccc1 | inactive: -0.3% |
| O=P(Nc1nccs1)(c1ccccc1)c1nc2ccccc2s1 (stereo not given) | inactive: -5.6% |
| O=C(O)COc1ccc([As](=O)(O)O)cc1[N+](=O)[O-] | inactive: 2.4% |
| Nc1ccccc1[As](=O)(O)c1ccccc1 | inactive: 0.6% |
| CC(C)c1ccc(OP(=O)(Nc2ccccn2)Oc2ccccc2F)cc1 (stereo not given) | inactive: 0.8% |
| ClCCSc1nnc(-c2cccnc2)o1 | inactive: -0.3% |
| CC(C)NC(=O)NP(=O)(Oc1ccccc1)Oc1ccccc1 | inactive: -3.1% |
| CCN(CC)C(=S)SC(NC=O)C(Cl)(Cl)Cl (stereo not given) | inactive: 4.4% |
| O=[N+]([O-])c1cc([N+](=O)[O-])c(-c2ccn[nH]2)s1 | inactive: -1% |
| O=[As](O)(c1ccc(O)cc1)c1ccccc1O | inactive: -0.9% |

| SMILES | inhibition |
| --- | --- |
| C[As](=O)(O)c1cccc(C(=O)O)c1 | inactive: 0.25% |
| Cc1ccc2nc3c(c(C)c2c1)CC(C(Cl)Cl)S3 (stereo not given) | inactive: -1.8% |
| Cc1ccc(OP(=O)(Nc2ccc([N+](=O)[O-])cn2)Oc2ccc(C)cc2)cc1 | inactive: -0.6% |
| COc1ccc(N/C(=N/P(=O)(N2CCOCC2)N2CCOCC2)N2CCOCC2)cc1 | inactive: -3.3% |
| O=C(OC1CN2CCC1CC2)C12CC3CC(CC(C3)C1)C2 (stereo not given) | inactive: 3.8% |
| Cc1cc(=O)[nH]c(N[N+](=O)[O-])n1 | inactive: -7% |
| Cc1c2c(nc3ccccc13)SC(C(Cl)Cl)C2 (stereo not given) | inactive: -15% |
| COc1ccc2nc(NP(=O)(c3ccccc3)c3ccccc3)sc2c1 | inactive: 2.8% |
| COc1cc(I)ccc1[As](=O)(O)O | inactive: -2.4% |
| CCOC(=O)c1ccc(NC(=O)C(C)(CCl)SC)cc1 (stereo not given) | inactive: -8.8% |
| O=C(OC1CN2CCC1CC2)c1cccc([N+](=O)[O-])c1 (stereo not given) | inactive: 2.7% |
| CCC(C)N(CC(C)C)C(=S)SC(NC(C)=O)C(Cl)(Cl)Cl (stereo not given) | inactive: 0.8% |
| COP1(=S)c2c(C)nn(CCC#N)c2N=C(c2ccc(F)cc2)N1C (stereo not given) | inactive: -0.4% |
| O=C(COc1ccccc1)OC1CN2CCC1CC2 (stereo not given) | inactive: 1.8% |
| O=C(Nc1ccncc1[N+](=O)[O-])c1ccc([N+](=O)[O-])cc1[N+](=O)[O-] | inactive: -3.3% |
| CCOC(=O)Nc1cccc([As](=O)(O)O)c1 | inactive: 10.8% |
| O=[N+]([O-])c1ccc(Nc2ccc(Oc3ccc([N+](=O)[O-])cc3[N+](=O)[O-])cc2)c([N+](=O)[O-])c1 | inactive: -6.05% |
| Cc1cc(SC(NC=O)C(Cl)(Cl)Cl)ncn1 (stereo not given) | inactive: 1.1% |
| O=P(Nc1ccccn1)(c1cccc2ccccc12)c1cccc2ccccc12 | inactive: -8.5% |
| CCOC(=O)Nc1ccc([As](=O)(O)O)c(O)c1 | inactive: 4.7% |
| CCCCOc1ccc(C(=O)NCC2(N3CCCCC3)CCCCC2)cc1OC | inactive: 0.2% |
| Cc1cc(SC(NC(=O)c2ccccc2)C(Cl)(Cl)Cl)nc(C(C)C)n1 (stereo not given) | inactive: -0.3% |
